These results are taken from PubChem BioAssay AID1508611 (The Scripps Research Institute Molecular Screening Center, 2020).

By UniProt entry, the sequences of proteins in these tests, tags left out.
UniProt Q8TDV5, whole entry: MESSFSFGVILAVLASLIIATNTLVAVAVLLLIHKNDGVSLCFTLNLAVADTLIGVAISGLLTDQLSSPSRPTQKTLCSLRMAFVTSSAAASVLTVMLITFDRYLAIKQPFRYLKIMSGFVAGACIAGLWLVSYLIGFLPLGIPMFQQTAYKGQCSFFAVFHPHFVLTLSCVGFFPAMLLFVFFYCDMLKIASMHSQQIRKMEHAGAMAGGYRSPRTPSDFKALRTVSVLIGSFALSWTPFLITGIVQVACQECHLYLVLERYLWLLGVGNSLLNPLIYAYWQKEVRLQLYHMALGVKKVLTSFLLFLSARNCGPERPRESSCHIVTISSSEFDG

This is a selection; strong and weak results do not stand in their true shares. The source made the active and inactive calls.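 The calls were made as follows: active = mean percent activation in the counterscreen above 29.09%; inactive = the rest.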

This assay concerns the target Glucose-dependent insulinotropic receptor (Homo sapiens) (UniProt Q8TDV5). As to the kind of experiment: off-target GPR119 activation – cell-based, PathHunter beta-arrestin, luminescence, triplicate, counter-screen for GPR151 activator project (AID 1508611). The settings on record: GPR119 PathHunter beta-arrestin cells, 90 min, at 11.2 µM, hits give high values, 0 = compound-well median, 100 = enzyme-acceptor control. Background: Counterscreens check selectivity or assay interference.
In the case of `CCCN1CCC(Nc2ccc(Cl)cc2)CC1`, the activation was inactive: 8.37%.
